Experimental data published in ChEMBL document CHEMBL1240475, “Design and synthesis of novel isoxazole-based HDAC inhibitors” (Eur J Med Chem, 2010).

Target: T1, Polyamine deacetylase HDAC10 (Homo sapiens, UniProt Q969S8)
T1 sequence (Q969S8 whole entry): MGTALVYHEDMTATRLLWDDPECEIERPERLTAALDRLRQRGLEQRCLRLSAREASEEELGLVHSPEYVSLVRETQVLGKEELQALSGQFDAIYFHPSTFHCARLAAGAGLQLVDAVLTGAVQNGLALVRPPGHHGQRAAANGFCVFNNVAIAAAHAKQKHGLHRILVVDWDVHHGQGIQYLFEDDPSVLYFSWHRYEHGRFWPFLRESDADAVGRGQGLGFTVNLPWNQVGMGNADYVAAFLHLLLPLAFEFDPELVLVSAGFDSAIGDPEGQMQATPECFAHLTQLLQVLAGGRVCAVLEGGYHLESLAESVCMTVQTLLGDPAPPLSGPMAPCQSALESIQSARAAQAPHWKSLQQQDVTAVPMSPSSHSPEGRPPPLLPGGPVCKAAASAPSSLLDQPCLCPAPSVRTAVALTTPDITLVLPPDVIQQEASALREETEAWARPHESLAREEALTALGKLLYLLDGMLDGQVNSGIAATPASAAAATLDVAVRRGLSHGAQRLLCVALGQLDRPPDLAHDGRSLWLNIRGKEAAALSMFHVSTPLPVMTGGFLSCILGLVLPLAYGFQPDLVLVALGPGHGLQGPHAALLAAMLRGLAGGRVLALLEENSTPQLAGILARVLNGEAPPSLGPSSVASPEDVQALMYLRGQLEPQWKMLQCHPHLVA
Experiment: Inhibition of HDAC10

SMILES: O=C(CCCCCCC(=O)Nc1ccccc1)NO [VORINOSTAT]
- IC50: 0.21 µM
